Assay results from patent publication US10112926B2 (priority 2014, dated 2018).

Sequences of proteins named here, by UniProt entry; tags and fusion partners are left off. A change or cut given only in a name is not applied to a line headed by its entry.
UniProt P42336, whole entry, looked up: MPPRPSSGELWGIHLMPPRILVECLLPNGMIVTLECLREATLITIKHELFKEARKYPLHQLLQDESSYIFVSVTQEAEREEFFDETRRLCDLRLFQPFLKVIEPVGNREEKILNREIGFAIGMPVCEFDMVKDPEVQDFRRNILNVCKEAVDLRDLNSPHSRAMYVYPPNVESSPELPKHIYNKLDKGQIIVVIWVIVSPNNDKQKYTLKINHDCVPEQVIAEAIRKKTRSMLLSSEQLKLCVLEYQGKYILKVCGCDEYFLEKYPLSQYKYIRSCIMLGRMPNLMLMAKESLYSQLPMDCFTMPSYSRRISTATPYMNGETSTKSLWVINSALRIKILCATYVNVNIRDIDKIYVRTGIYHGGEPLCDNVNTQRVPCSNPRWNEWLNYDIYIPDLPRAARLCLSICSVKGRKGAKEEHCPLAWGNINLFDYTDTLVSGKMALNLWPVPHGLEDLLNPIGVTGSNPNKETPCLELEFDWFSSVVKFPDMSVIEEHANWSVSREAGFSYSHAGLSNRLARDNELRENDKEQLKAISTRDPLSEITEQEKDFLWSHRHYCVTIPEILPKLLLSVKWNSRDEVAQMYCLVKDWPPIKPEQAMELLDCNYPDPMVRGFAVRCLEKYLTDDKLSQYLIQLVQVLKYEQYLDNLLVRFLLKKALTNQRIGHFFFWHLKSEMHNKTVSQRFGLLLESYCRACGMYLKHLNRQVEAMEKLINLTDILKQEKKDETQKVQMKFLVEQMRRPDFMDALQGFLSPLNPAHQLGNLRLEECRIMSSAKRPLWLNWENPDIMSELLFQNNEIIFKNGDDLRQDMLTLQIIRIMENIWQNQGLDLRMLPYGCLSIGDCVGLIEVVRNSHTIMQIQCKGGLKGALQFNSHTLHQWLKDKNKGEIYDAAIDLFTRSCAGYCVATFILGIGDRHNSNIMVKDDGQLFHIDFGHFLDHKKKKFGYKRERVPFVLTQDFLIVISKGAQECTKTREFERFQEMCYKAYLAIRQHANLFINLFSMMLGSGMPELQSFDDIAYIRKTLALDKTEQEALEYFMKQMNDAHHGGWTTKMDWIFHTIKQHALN
UniProt P42338: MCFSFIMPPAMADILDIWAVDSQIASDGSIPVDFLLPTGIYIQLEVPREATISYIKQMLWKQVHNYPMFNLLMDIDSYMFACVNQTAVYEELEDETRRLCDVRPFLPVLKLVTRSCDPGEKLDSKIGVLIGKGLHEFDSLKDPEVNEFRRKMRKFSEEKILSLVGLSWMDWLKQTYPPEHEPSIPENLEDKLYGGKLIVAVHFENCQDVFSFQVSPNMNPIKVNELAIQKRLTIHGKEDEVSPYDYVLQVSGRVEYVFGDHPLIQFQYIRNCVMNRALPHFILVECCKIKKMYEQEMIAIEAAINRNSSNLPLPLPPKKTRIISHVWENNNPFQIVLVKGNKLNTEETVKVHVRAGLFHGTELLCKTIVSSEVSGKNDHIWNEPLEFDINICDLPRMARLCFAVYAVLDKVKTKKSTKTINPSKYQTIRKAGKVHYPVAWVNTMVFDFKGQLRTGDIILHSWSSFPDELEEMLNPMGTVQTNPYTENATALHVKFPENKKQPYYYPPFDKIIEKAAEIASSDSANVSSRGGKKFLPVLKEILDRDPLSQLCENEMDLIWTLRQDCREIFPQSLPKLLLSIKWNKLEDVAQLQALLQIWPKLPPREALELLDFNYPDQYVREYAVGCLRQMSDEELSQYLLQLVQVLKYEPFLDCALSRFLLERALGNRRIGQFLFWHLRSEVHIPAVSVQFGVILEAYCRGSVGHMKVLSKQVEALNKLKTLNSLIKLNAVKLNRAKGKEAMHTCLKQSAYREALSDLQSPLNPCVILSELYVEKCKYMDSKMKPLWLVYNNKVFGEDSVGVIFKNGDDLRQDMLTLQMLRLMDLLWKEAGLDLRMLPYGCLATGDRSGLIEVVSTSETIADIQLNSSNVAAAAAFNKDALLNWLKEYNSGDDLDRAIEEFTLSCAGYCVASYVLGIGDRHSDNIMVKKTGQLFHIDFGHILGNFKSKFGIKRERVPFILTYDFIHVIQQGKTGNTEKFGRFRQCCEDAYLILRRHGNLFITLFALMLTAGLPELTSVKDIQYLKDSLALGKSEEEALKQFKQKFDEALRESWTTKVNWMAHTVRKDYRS

Key:
[1] = target: PI 3-kinase alpha (Homo sapiens (Human), UniProt P42336); conditions: read-out: Assay A PI3Kα IC50
[2] = target: PI 3-kinase beta (Homo sapiens (Human), UniProt P42338); conditions: read-out: Assay B PI3Kβ IC50
[3] = target: PI 3-kinase alpha (Rat-1 pBABEpuro Myr-HA-hp110 alpha cells) (Homo sapiens (Human), UniProt P42336); experiment: cell-based; conditions: Assay H PI3Kα IC50
[4] = target: PI 3-kinase beta (Rat-1 pBABEpuro Myr-HA-hp110 beta cells) (Homo sapiens (Human), UniProt P42338); experiment: cell-based; conditions: Assay I PI3Kβ IC50

`Cc1noc(-c2cc(-c3cc(S(=O)(=O)NCC4(O)CC4)ccc3C)cnc2N)n1` [Example 37.19, 3-(6-Amino-5-(3-methyl-1,2,4-oxadiazol-5-yl)pyridin-3-yl)-N-((1-hydroxycyclopropyl)methyl)-4-methylbenzenesulfonamide] gave an IC50 [1] of 540 nM, an IC50 [2] of 4900 nM and an IC50 [3] of 7970 nM. For the same compound, the IC50 [4] was > 10000 nM.
`COC1(C)CN(S(=O)(=O)c2ccc(C)c(-c3cnc(N)c(-c4cc(C)no4)c3)c2)C1` [Example 37.20, 5-(5-((3-Methoxy-3-methylazetidin-yl)sulfonyl)-2-methylphenyl)-3-(3-methylisoxazol-5-yl)pyridin-2-amine] was tested, and the IC50 [1] was 1800 nM, the IC50 [2] was 9000 nM and the IC50 [3] was 9320 nM. For the same compound, the IC50 [4] was > 10000 nM.
With `Cc1noc(-c2cc(-c3cc(S(=O)(=O)NC(CO)C4CCOC4)ccc3C)cnc2N)n1` (centres unmarked) [Example 37.21, 3-(6-Amino-5-(3-methyl-1,2,4-oxadiazol-5-yl)pyridin-3-yl)-N-(2-hydroxy-1-(tetrahydrofuran-3-yl)ethyl)-4-methylbenzenesulfonamide] the IC50 [1] was 1800 nM, the IC50 [2] was 10000 nM and the IC50 [3] was > 10000 nM. For the same compound, the IC50 [4] was 2520 nM.
Compound `Cc1cc(-c2cc(-c3cc(S(=O)(=O)NCC4(CO)CCCC4)ccc3C)cnc2N)on1` [Example 37.23, 3-(6-Amino-5-(3-methylisoxazol-5-yl)pyridin-3-yl)-N-((1-(hydroxymethyl)cyclopentyl)methyl)-4-methylbenzenesulfonamide] has an IC50 [1] of 130 nM, an IC50 [2] of 2200 nM and an IC50 [3] of 2910 nM. The IC50 [4] was > 10000 nM.
For `Cc1cc(-c2cc(-c3cc(S(=O)(=O)N4CC[C@@H](O)C4)ccc3C)cnc2N)on1` [Example 37.24, (R)-1-((3-(6-Amino-5-(3-methylisoxazol-5-yl)pyridin-3-yl)-4-methylphenyl)sulfonyl)pyrrolidin-3-ol], the IC50 [1] was 1700 nM, the IC50 [2] was 6300 nM and the IC50 [3] was > 10000 nM. For the same compound, the IC50 [4] was > 10000 nM.
With `Cc1noc(-c2cc(-c3cc(S(=O)(=O)NCC4(CO)CCC4)ccc3C)cnc2N)n1` [Example 37.26, 3-(6-Amino-5-(3-methyl-1,2,4-oxadiazol-5-yl)pyridin-3-yl)-N-((1-(hydroxymethyl)cyclobutyl)methyl)-4-methylbenzenesulfonamide] the IC50 [1] was 720 nM, the IC50 [2] was 3100 nM and the IC50 [3] was 2230 nM. It also gave an IC50 [4] of 2890 nM.
`Cc1cc(-c2cc(-c3cc(S(=O)(=O)NCCC4(O)CCCCC4)ccc3C)cnc2N)on1` [Example 37.30, 3-(6-Amino-5-(3-methylisoxazol-5-yl)pyridin-3-yl)-N-(2-(1-hydroxycyclohexyl)ethyl)-4-methylbenzenesulfonamide] showed an IC50 [1] of 100 nM, an IC50 [2] of 1500 nM and an IC50 [3] of 2670 nM. For the same compound, the IC50 [4] was 5380 nM.
`Cc1noc(-c2cc(-c3cc(S(=O)(=O)NCCC4(O)CCCCC4)ccc3C)cnc2N)n1` [Example 37.31, 3-(6-Amino-5-(3-methyl-1,2,4-oxadiazol-5-yl)pyridin-3-yl)-N-(2-(1-hydroxycyclohexyl)ethyl)-4-methylbenzenesulfonamide] was tested, and the IC50 [1] was 50 nM, the IC50 [2] was 2500 nM and the IC50 [3] was 1000 nM. For the same compound, the IC50 [4] was > 10000 nM.
`Cc1noc(-c2cc(-c3cc(S(=O)(=O)N4CC[C@H](O)C4)ccc3C)cnc2N)n1` [Example 37.32, (S)-1-((3-(6-Amino-5-(3-methyl-1,2,4-oxadiazol-5-yl)pyridin-3-yl)-4-methylphenyl)sulfonyl)pyrrolidin-3-ol hydrochloride] was tested, and the IC50 [1] was 1100 nM, the IC50 [2] was > 10000 nM and the IC50 [3] was > 10000 nM. For the same compound, the IC50 [4] was > 10000 nM.
With `Cc1noc(-c2cc(-c3cc(S(=O)(=O)NC4CCN(C(C)C)CC4)ccc3C)cnc2N)n1` [Example 37.34, 3-(6-Amino-5-(3-methyl-1,2,4-oxadiazol-5-yl)pyridin-3-yl)-N-(1-isopropylpiperidin-4-yl)-4-methylbenzenesulfonamide] the IC50 [1] was 1400 nM, the IC50 [2] was > 10000 nM and the IC50 [3] was > 10000 nM. For the same compound, the IC50 [4] was > 10000 nM.
`Cc1noc(-c2cc(-c3cc(S(=O)(=O)NCC(C)(F)F)ccc3C)cnc2N)n1` [Example 37.38, 3-(6-Amino-5-(3-methyl-1,2,4-oxadiazol-5-yl)pyridin-3-yl)-N-(2,2-difluoropropyl)-4-methylbenzenesulfonamide] was tested, and the IC50 [1] was 550 nM, the IC50 [2] was > 10000 nM and the IC50 [3] was > 10000 nM. For the same compound, the IC50 [4] was > 10000 nM.
For `Cc1noc(-c2cc(-c3cc(S(=O)(=O)N4CC(CO)C4)ccc3C)cnc2N)n1` [Example 37.39, (S)-((3-(6-Amino-5-(3-methyl-1,2,4-oxadiazol-5-yl)pyridin-3-yl)-4-methylphenyl)sulfonyl)azetidin-3-yl)methanol], the IC50 [1] was 1800 nM, the IC50 [2] was 3300 nM and the IC50 [3] was > 10000 nM. The IC50 [4] was > 10000 nM.
With `Cc1cc(-c2cc(-c3cc(S(=O)(=O)NC[C@@H]4CCOC4)ccc3C)cnc2N)on1` [Example 38, (S)-3-(6-Amino-5-(3-methylisoxazol-5-yl)pyridin-3-yl)-4-methyl-N-((tetrahydrofuran-3-yl)methyl)benzenesulfonamide] the IC50 [1] was 320 nM, the IC50 [2] was 4700 nM and the IC50 [3] was > 10000 nM. For the same compound, the IC50 [4] was 4230 nM.
In the case of `Cc1ccc(S(=O)(=O)NCC(C)(C)O)cc1-c1cnc(N)c(-c2cc(C(=O)N3CCOCC3)no2)c1` [Example 42, 3-(6-Amino-5-(3-(morpholine-4-carbonyl)isoxazol-5-yl)pyridin-3-yl)-N-(2-hydroxy-2-methylpropyl)-4-methylbenzenesulfonamide], the IC50 [1] is reported as 890 nM, the IC50 [2] is reported as > 10000 nM and the IC50 [3] is reported as > 10000 nM. For the same compound, the IC50 [4] was > 10000 nM.
`CCCONS(=O)(=O)c1ccc(C)c(-c2cnc(N)c(-c3nc(C)no3)c2)c1` [Example 44, 3-(6-Amino-5-(3-methyl-1,2,4-oxadiazol-5-yl)pyridin-3-yl)-4-methyl-N-propoxybenzenesulfonamide] gave an IC50 [1] of 50 nM, an IC50 [2] of 1600 nM and an IC50 [3] of 300 nM. For the same compound, the IC50 [4] was > 10000 nM.
`Cc1noc(-c2cc(-c3cc(S(=O)(=O)NOC(C)C)ccc3C)cnc2N)n1` [Example 45, 3-(6-Amino-5-(3-methyl-1,2,4-oxadiazol-5-yl)pyridin-3-yl)-N-isopropoxy-4-methylbenzenesulfonamide] was tested, and the IC50 [1] was 230 nM, the IC50 [2] was 2600 nM and the IC50 [3] was > 10000 nM. It also gave an IC50 [4] of 2930 nM.
With `CONS(=O)(=O)c1ccc(C)c(-c2cnc(N)c(-c3nc(C)no3)c2)c1` [Example 46, 3-(6-Amino-5-(3-methyl-1,2,4-oxadiazol-5-yl)pyridin-3-yl)-N-methoxy-4-methylbenzenesulfonamide] the IC50 [1] was 390 nM, the IC50 [2] was > 10000 nM and the IC50 [3] was 1460 nM. For the same compound, the IC50 [4] was > 10000 nM.
In the case of `Cc1noc(-c2cc(-c3cc(S(=O)(=O)NOC(C)(C)C)ccc3C)cnc2N)n1` [Example 47, 3-(6-Amino-5-(3-methyl-1,2,4-oxadiazol-5-yl)pyridin-3-yl)-N-(tert-butoxy)-4-methylbenzenesulfonamide], the IC50 [1] is reported as 100 nM, the IC50 [2] is reported as 890 nM and the IC50 [3] is reported as > 10000 nM. For the same compound, the IC50 [4] was > 10000 nM.
In the case of `Cc1noc(-c2cc(-c3cc(S(=O)(=O)NCCC(F)(F)F)ccc3C)cnc2N)n1` [Example 48, 3-(6-Amino-5-(3-methyl-1,2,4-oxadiazol-5-yl)pyridin-3-yl)-4-methyl-N-(3,3,3-trifluoropropyl)benzenesulfonamide], the IC50 [1] is reported as 300 nM, the IC50 [2] is reported as 5100 nM and the IC50 [3] is reported as > 10000 nM. The IC50 [4] was > 10000 nM.
For `Cc1noc(-c2cc(-c3cc(S(=O)(=O)NC4CCOCC4)ccc3C)cnc2N)n1` [Example 49, 3-(6-Amino-5-(3-methyl-1,2,4-oxadiazol-5-yl)pyridin-3-yl)-4-methyl-N-(tetrahydro-2H-pyran-4-yl)benzenesulfonamide], the IC50 [1] was 270 nM, the IC50 [2] was 2100 nM and the IC50 [3] was > 10000 nM. For the same compound, the IC50 [4] was 9560 nM.
For `Cc1cc(-c2cc(-c3cc(S(=O)(=O)NCC4(CO)COC4)ccc3C)cnc2N)on1` [Example 50, 3-(6-Amino-5-(3-methylisoxazol-5-yl)pyridin-3-yl)-N-((3-(hydroxymethyl)oxetan-3-yl)methyl)-4-methylbenzenesulfonamide], the IC50 [1] was 1600 nM, the IC50 [2] was 4400 nM and the IC50 [3] was > 10000 nM. The IC50 [4] was > 10000 nM.
`Cc1noc(-c2cc(-c3cc(S(=O)(=O)NCC4(O)CCOCC4)ccc3C)cnc2N)n1` [Example 51, 3-(6-Amino-5-(3-methyl-1,2,4-oxadiazol-5-yl)pyridin-3-yl)-N-((4-hydroxytetrahydro-2H-pyran-4-yl)methyl)-4-methylbenzenesulfonamide] was tested, and the IC50 [1] was 420 nM, the IC50 [2] was 1800 nM and the IC50 [3] was 1560 nM. The IC50 [4] was > 10000 nM.
`Cc1noc(-c2cc(-c3cc(S(=O)(=O)NCC4(CO)COC4)ccc3C)cnc2N)n1` [Example 52, 3-(6-Amino-5-(3-methyl-1,2,4-oxadiazol-5-yl)pyridin-3-yl)-N-((3-(hydroxymethyl)oxetan-3-yl)methyl)-4-methylbenzenesulfonamide] was tested, and the IC50 [1] was 1100 nM, the IC50 [2] was > 10000 nM and the IC50 [3] was > 10000 nM. For the same compound, the IC50 [4] was > 10000 nM.
`Cc1cc(-c2cc(-c3cc(S(=O)(=O)NCC4(O)CCCC4)ccc3C)cnc2N)on1` [Example 53, 3-(6-Amino-5-(3-methylisoxazol-5-yl)pyridin-3-yl)-N-((1-hydroxycyclopentyl)methyl)-4-methylbenzenesulfonamide] was tested, and the IC50 [1] was 680 nM, the IC50 [2] was 2200 nM and the IC50 [3] was > 10000 nM. The IC50 [4] was 6070 nM.
For `Cc1cc(-c2cc(-c3cc(S(=O)(=O)NCC4(O)CCOCC4)ccc3C)cnc2N)on1` [Example 54, 3-(6-Amino-5-(3-methylisoxazol-5-yl)pyridin-3-yl)-N-((4-hydroxytetrahydro-2H-pyran-4-yl)methyl)-4-methylbenzenesulfonamide], the IC50 [1] was 790 nM, the IC50 [2] was 4500 nM and the IC50 [3] was > 10000 nM. The IC50 [4] was > 10000 nM.
With `Cc1noc(-c2cc(-c3cc(S(=O)(=O)NO[C@H]4C[C@H](O)C4)ccc3C)cnc2N)n1` [Example 55, trans-3-(6-Amino-5-(3-methyl-1,2,4-oxadiazol-5-yl)pyridin-3-yl)-N-(3-hydroxycyclobutoxy)-4-methylbenzenesulfonamide] the IC50 [1] was 90 nM, the IC50 [2] was 1200 nM and the IC50 [3] was 320 nM. For the same compound, the IC50 [4] was 410 nM.

Structures can show the parent of a compound that is named as a salt.
